Test results published in patent US20240016942A1, “STAT DEGRADERS AND USES THEREOF” (Kymera Therapeutics, Inc., priority 2020, published 2024).

By UniProt entry, the sequences of proteins in these tests, tags left out.
UniProt P40763, whole entry: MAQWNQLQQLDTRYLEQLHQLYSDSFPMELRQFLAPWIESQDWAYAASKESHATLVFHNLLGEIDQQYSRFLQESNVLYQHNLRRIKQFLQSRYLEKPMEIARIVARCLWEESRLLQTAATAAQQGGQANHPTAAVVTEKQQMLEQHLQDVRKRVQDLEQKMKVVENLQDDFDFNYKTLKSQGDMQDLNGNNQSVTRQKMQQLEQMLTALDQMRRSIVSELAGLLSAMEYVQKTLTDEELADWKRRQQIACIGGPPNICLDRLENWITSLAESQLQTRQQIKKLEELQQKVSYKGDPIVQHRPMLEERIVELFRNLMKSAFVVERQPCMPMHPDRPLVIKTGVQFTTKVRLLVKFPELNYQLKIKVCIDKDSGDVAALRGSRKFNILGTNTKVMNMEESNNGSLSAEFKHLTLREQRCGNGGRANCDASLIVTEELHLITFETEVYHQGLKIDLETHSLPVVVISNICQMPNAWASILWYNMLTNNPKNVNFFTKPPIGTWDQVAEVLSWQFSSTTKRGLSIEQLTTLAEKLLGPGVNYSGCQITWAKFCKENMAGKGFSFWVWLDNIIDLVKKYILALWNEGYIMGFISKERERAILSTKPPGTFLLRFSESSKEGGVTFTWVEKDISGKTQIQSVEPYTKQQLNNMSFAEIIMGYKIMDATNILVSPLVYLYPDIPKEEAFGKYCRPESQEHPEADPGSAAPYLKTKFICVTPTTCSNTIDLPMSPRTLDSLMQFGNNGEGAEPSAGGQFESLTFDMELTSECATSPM

Biological target: STAT3 (Homo sapiens, UniProt P40763)
Test: STAT3 HiBiT degradation assay (Nano-Glo HiBiT lytic detection) in transfected A549 cells
Details: read-out: STAT3 HiBIT A549 degradation 24 h: Average external-Abs DC50, 24 h compound incubation, tested form: ammonium salt
Procedure: Example 1. HiBiT Assay Protocol
Compound preparation and Cell seeding: The transfected A549 cells were harvested from dish into cell culture medium and cell numbers counted. Cells were diluted with culture medium to the desired density and 30 μL of cell suspension (about 2000 cells/well) were added into each well of a 384-well cell culture plate as designated and transferred into 37° C. 5% CO2 incubator for 24 h. Compounds were dissolved to 10 mM stock solution and 12 μL of the stock solution was transferred to a 384 LDV-plate. 3 fold, 10-point dilution was performed by transferring 4 μL compound into 8 μL DMSO using a TECAN (EVO200) liquid handler. 30 μl of diluted compound from compound source plate was transferred into the cell plate as designated by using Echo550 and transferred into 37° C. 5% CO2 incubator for 24 h.
Detection: Plates were removed from incubators and equilibrated at room temperature for 15 minutes. Nano-Glo Hibit Lytic Detection reagent (Promega Cat #N3040) was thawed and equilibrated to room temperature before the experiment. 30 μL of Nano-Glo Hibit Lytic Detection reagent was added into each well to be detected. The plates were held at room temperature for 10 min followed by reading on EnSpire.
Data analysis: The remaining activity was calculated following the formula: Remaining Activity (%)=100%×(Lumsample−LumNC)/(LumPC−LumNC). […]

SMILES	DC50
Cc1ncsc1-c1ccc([C@H](C)NC(=O)[C@@H]2C[C@@H](O)CN2C(=O)[C@@H](NC(=O)CCCc2cccc(OC[C@H](CCC(N)=O)NC(=O)[C@@H]3CC[C@@H]4CCN(C)C[C@H](NC(=O)c5cc6cc(C(=O)P(=O)(O)O)ccc6[nH]5)C(=O)N43)c2Cl)C(C)(C)C)cc1	< 0.01 µM
CC(=O)N1CC[C@H]2CC[C@@H](C(=O)N[C@@H](CCC(N)=O)COc3cccc(CCCC(=O)N[C@H](C(=O)N4C[C@H](O)C[C@H]4C(=O)N[C@@H](C)c4ccc(-c5scnc5C)cc4)C(C)(C)C)c3Cl)N2C(=O)[C@@H](NC(=O)c2cc3cc(C(=O)P(=O)(O)O)ccc3s2)C1	> 1 µM
